The target in the test is T1, human CB2R (Homo sapiens, UniProt P34972).
T1 construct: host or cells: HEK-293T, transient transfection, living cells
Kind of test: [3H]-WIN 55,212-2 saturation radioligand binding on CHO-CB2R membranes. As to conditions: saturation/Scatchard, membranes from CHO cells stably expressing human CB2R.

Amino acid sequences for entries named in this document (tags omitted).
UniProt P34972, whole entry: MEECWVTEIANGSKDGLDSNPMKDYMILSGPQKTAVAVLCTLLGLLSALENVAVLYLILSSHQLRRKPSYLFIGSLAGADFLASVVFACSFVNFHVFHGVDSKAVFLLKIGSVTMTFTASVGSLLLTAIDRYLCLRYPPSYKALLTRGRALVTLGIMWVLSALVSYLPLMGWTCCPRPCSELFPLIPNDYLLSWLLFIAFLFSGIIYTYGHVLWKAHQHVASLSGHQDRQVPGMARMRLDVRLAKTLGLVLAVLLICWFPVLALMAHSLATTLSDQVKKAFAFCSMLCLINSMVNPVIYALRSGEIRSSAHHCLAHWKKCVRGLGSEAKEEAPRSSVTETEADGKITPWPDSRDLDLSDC

`Cc1c(C(=O)c2cccc3ccccc23)c2cccc3c2n1[C@H](CN1CCOCC1)CO3` [WIN 55,212-2, (R)-(+)-[2,3-dihydro-5-methyl-3-(4-morpholinylmethyl)pyrrolo[1,2,3-de]-1,4-benzoxazin-6-yl]-1-naphthalenylmethanone] gave a Bmax of 8300 ± 200 fmol/mg protein.
